Measured values from patent publication US7132420B2, “Aspartic protease inhibitors” (The United States of America as represented by the …, priority 1999, dated 2006).

System: normal cells
Experiment: toxicity against normal cells (IC50)
Assay type: cell-based
Conditions: read-out: normal IC50, Table 1
Description: This example illustrates the HIV-1 protease inhibition activity (Ki), HIV-1 antiviral data (EC50), and the toxicity against normal cells (IC50), for particular compounds of formula (I). The HIV protease assay was done according to the protocol described in Kageyama et al, Antimicrob. Agents Chemother., 37, 272 (1993). The HIV antiviral assay was done according to the protocol described in Weislow et al., J. National Cancer Inst. 81, 577 (1989).

| SMILES | IC50 |
| --- | --- |
| Cc1cccc(C)c1OCC(=O)N[C@@H](Cc1ccccc1)[C@@H](O)C[C@H](CC(C)C)NC(=O)[C@H](C(C)C)N1CCCC1=O | 10 µM |
| COc1ccc(S(=O)(=O)N(Cc2ccccc2)[C@H](C(=O)N[C@@H](CC(C)C)C[C@H](O)[C@H](Cc2ccccc2)NC(=O)COc2c(C)cccc2C)C(C)C)cc1 | > 10 µM |
| CC(C)C[C@@H](C[C@H](O)[C@H](Cc1ccccc1)NC(=O)C(NC(=O)OCc1ccccn1)C(C)C)NC(=O)C(NC(=O)OCc1ccccn1)C(C)C (stereo partly drawn) | > 20 µM |
